Test results from the supplement of paper PMC11003180.

Experiments:
Assay in all cases: drug sensitivity score (DSS) from 5-dose viability curve (DSS (area-based score, 0 = no response)); higher = more sensitive (stronger viability inhibition); extreme values may be limits of the assay
[1] = test system: MDCK wild-type - doxycycline; details: doxycycline: none; 72 h
In short: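 Parental MDCK cells without doxycycline were dispensed at 2000 cells/well onto pre-spotted 384-well plates. The plates held an oncology library of 528 drugs at five doses (1-10,000 nM) and were incubated 72 h at 37 °C. Viability was read as CellTiter-Glo luminescence and scaled per plate between vehicle and positive controls. Drug sensitivity scores came from dose-response curve fits in the Breeze pipeline.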

[2] = test system: MDCK p60AmotL2-inducible + doxycycline (p60AmotL2 expressing); details: doxycycline: 10 ng/mL; 72 h
In short: (§1)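 Pre-spotted 384-well plates held 528 oncology drugs, each at five doses from 1 to 10,000 nM. Parental and doxycycline-inducible MDCK cells, exposed beforehand to 10 ng/mL doxycycline in the medium, were added at 2000 cells/well and incubated 72 h at 37 °C. Viability came from CellTiter-Glo luminescence normalized per plate to vehicle and positive controls, and the Breeze pipeline fitted dose-response curves to give drug sensitivity scores.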

[3] = test system: MDCK wild-type + doxycycline; details: doxycycline: 10 ng/mL; 72 h
In short: as §1

Measured: drug sensitivity score

NCc1ccc(OCCCc2sc(-c3ccc4c(c3)/C(=N/Nc3nc5ccccc5s3)CCC4)nc2C(=O)O)cc1 [WEHI-539]
0: all assays above
